Measured values: PMC6151491, “In Vitro Evaluation of Third Generation PAMAM Dendrimer Conjugates” (Molecules : A Journal of Synthetic Chemistry and Natural …, 2017)

Key:
[1] = test system: Caco-2 cell monolayers; assay: Transport across Caco-2 monolayers; conditions: each equivalent to 100 µM naproxen, A→B and B→A, 180 min
[2] = Apparent partition coefficient between 1-octanol and buffer; assay type: physicochemical
[3] = 1-octanol/0.06 M hydrochloric acid buffer pH 1.2, 37 °C
[4] = 1-octanol/phosphate buffer pH 7.4, 37 °C

G0-diethylene glycol-naproxen [G0-deg-NAP]
transport of naproxen across Caco-2 monolayers (in words) [1]: No significant difference (p > 0.05) | log Kapp(o/w) [2, 3]: −1.17 ± 0.1 | log Kapp(o/w) [2, 4]: −1.07 ± 0.09

lauroyl-G0-diethylene glycol-naproxen [L-G0-deg-NAP]
transport of naproxen across Caco-2 monolayers (in words) [1]: further enhancement (p < 0.05) in the transport of naproxen | log Kapp(o/w) [2, 3]: −0.18 ± 0.05 | log Kapp(o/w) [2, 4]: −0.19 ± 0.07
